The entries are a selection whose mix differs from that of the whole data set. Records with an inconclusive call do not appear. A call without a number means that no potency is given here. The source made the active and inactive calls. The call rests on the fitted dose curve; in most records, active means well fitted inhibition curve with a large enough effect; inconclusive means small, poorly fitted or top-dose-only effect; inactive means flat fitted curve, though single readings scatter.
Potency means the concentration at half of the fitted maximal effect.

The test in a line: qHTS for Inhibitors of human tyrosyl-DNA phosphodiesterase 1 (TDP1): qHTS in cells in presence of CPT. Further: nearly all actives have a fitted effect of over 55% in size. The note with it: chicken DT40 Tdp1-/-;hTDP1 cells + 20 nM CPT, ATP luminescence, 48 h; series mostly up to 46.2 µM.
For `CCC(C)N(CC(C)C)C(=S)SC(NC(C)=O)C(Cl)(Cl)Cl` (stereo unspecified), the Potency is active: 1.03 µM.

For the compound `CCOC(=O)c1ccc(NC(=O)C(C)(CCl)SC)cc1` (stereo unspecified), the Potency entry is “inactive”.

For `O=C(OC1CN2CCC1CC2)c1cccc([N+](=O)[O-])c1` (stereo unspecified), the Potency entry was “inactive”.

For `CSc1ccc(Nc2c([N+](=O)[O-])cc([N+](=O)[O-])cc2[N+](=O)[O-])cc1`, the Potency is active: 3.66 µM.

Regarding `O=C(COc1ccccc1)OC1CN2CCC1CC2` (stereo unspecified), the Potency result was “inactive”.

Take `O=C(Nc1ccncc1[N+](=O)[O-])c1ccc([N+](=O)[O-])cc1[N+](=O)[O-]`: the Potency is active: 14.6 µM.

Take `COP1(=S)c2c(C)nn(CCC#N)c2N=C(c2ccc(F)cc2)N1C` (stereo unspecified): the Potency result is “inactive”.

As for `COC(=O)C1(C)COP(=O)(N2CCCC2)OC1` (stereo unspecified), the Potency result is “inactive”.

In the case of `O=[N+]([O-])c1ccc(Nc2ccc(Oc3ccc([N+](=O)[O-])cc3[N+](=O)[O-])cc2)c([N+](=O)[O-])c1`, the Potency is active: 7.31 µM.

In the case of `O=P(Nc1ccccn1)(c1cccc2ccccc12)c1cccc2ccccc12`, the Potency entry was “inactive”.

As for `Cc1cc(SC(NC=O)C(Cl)(Cl)Cl)ncn1` (stereo unspecified), the Potency is active: 13 µM.

As for `CCOC(=O)Nc1cccc([As](=O)(O)O)c1`, the Potency result is “inactive”.

For the compound `CCCCOc1ccc(C(=O)NCC2(N3CCCCC3)CCCCC2)cc1OC`, the Potency result is “inactive”.

Turning to `COP(=O)(OC)N1CC1c1ccccc1` (stereo unspecified), the Potency result was “inactive”.

`CC1CCNP(=O)(N(CCCl)CCCl)O1` (stereo unspecified): the Potency entry was “inactive”.

In the case of `CCOC(=O)Nc1ccc([As](=O)(O)O)c(O)c1`, the Potency entry was “inactive”.

For `O=C(O)C(O)c1ccc(N(CCCl)CCCl)cc1` (stereo unspecified), the Potency was active: 2.91 µM.

For the compound `CC(C)NC(=O)NP(=O)(Oc1ccccc1)Oc1ccccc1`, the Potency entry was “inactive”.

Turning to `O=C(OC1CN2CCC1CC2)c1cccc2[nH]cnc12` (stereo unspecified), the Potency result is “inactive”.

In the case of `CCN(CC)C(=S)SC(NC=O)C(Cl)(Cl)Cl` (stereo unspecified), the Potency was active: 3.66 µM.

For the compound `O=[N+]([O-])c1cc([N+](=O)[O-])c(-c2ccn[nH]2)s1`, the Potency is active: 10.3 µM.

As for `COC(=O)C1(C)COP(=O)(N2CCCCCC2)OC1` (stereo unspecified), the Potency result was “inactive”.

Take `ClCCSc1nnc(-c2cccnc2)o1`: the Potency result is “inactive”.

Consider `O=Cc1ccc(NCCCl)cc1`, for which the Potency was active: 12.6 µM.

In the case of `Cc1ccc2nc3c(c(C)c2c1)CC(C(Cl)Cl)S3` (stereo unspecified), the Potency entry is “inactive”.

As for `[N-]=[N+]=NC1CCCCC1NC(=O)c1cc([N+](=O)[O-])cc([N+](=O)[O-])c1` (stereo unspecified), the Potency is active: 6.51 µM.

For `Cc1ccc(OP(=O)(Nc2ccc([N+](=O)[O-])cn2)Oc2ccc(C)cc2)cc1`, the Potency entry was “inactive”.

In the case of `ClCCN(CCCl)c1ccc(CC2C=CC=C2)cc1`, the Potency was active: 1.58 µM.

`O=[As](O)(c1ccc(O)cc1)c1ccccc1O`: the Potency result is “inactive”.

With `C[As](=O)(O)c1cccc(C(=O)O)c1`, the Potency result is “inactive”.

Regarding `COc1cc(C(=O)NCC2(N3CCOCC3)CCCCC2)ccc1OCC(C)C`, the Potency was active: 9.2 µM.

As for `COc1ccc(N/C(=N/P(=O)(N2CCOCC2)N2CCOCC2)N2CCOCC2)cc1`, the Potency result is “inactive”.

`O=P1(N(CCCl)CCCl)OCCCN1CCCl` (stereo unspecified): the Potency result was “inactive”.

Regarding `Cc1cc(=O)[nH]c(N[N+](=O)[O-])n1`, the Potency result was “inactive”.

Turning to `COc1cc(C2NCCC3(OCCO3)C2(C)C)cc(OC)c1OC` (stereo unspecified), the Potency entry is “inactive”.

In the case of `CCOP(=O)(Nc1cccc2ccccc12)OCC`, the Potency entry is “inactive”.

As for `CCCOP(=S)(Nc1nc(N)cc(=O)[nH]1)OCCC`, the Potency entry was “inactive”.

For the compound `Nc1cccc2c([As](=O)(O)O)cccc12`, the Potency entry is “inactive”.

In the case of `Cc1ccc(NCCc2c([N+](=O)[O-])cc([N+](=O)[O-])cc2[N+](=O)[O-])cc1`, the Potency is active: 16.4 µM.

Turning to `Cc1cccc(OCC(=O)OC2CN3CCC2CC3)c1` (stereo unspecified), the Potency entry is “inactive”.

Take `O=[As](O)(c1cccc(O)c1)c1cccc(O)c1`: the Potency entry was “inactive”.

Turning to `O=[As](O)(O)c1cccnc1`, the Potency result was “inactive”.

As to `CS(=O)(=O)c1ccc(Cl)c(NC(=O)COC(=O)C(O)(c2ccccc2)c2ccccc2)c1`, the Potency entry is “inactive”.

As for `O=C(OC1CN2CCC1CC2)c1ccc(Cl)cc1` (stereo unspecified), the Potency result was “inactive”.

In the case of `O=[N+]([O-])c1ccc2c(c1)nnn2O`, the Potency result is “inactive”.

For the compound `CN(C)C(=O)c1cc([N+](=O)[O-])cc2c1-c1c(cc([N+](=O)[O-])cc1[N+](=O)[O-])C2=O`, the Potency was active: 2.06 µM.

In the case of `CN(C(=O)Cc1ccc(Cl)c(Cl)c1)[C@H]1CC[C@@]2(CCCO2)C[C@@H]1N1CCCC1`, the Potency entry is “inactive”.

Consider `N#CCCN(C(=O)COC(=O)C(O)(c1ccccc1)c1ccccc1)c1ccc(F)cc1`, for which the Potency result was “inactive”.

`CN(C(=O)Cc1ccccc1)[C@@H]1CC[C@]2(CCCO2)C[C@H]1N1CCCC1`: the Potency entry is “inactive”.

In the case of `CCOP1(=S)c2c(C)nn(CCC#N)c2N=C(c2ccc(F)cc2)N1C` (stereo unspecified), the Potency entry was “inactive”.

Take `NC(=O)Nc1ccc([As](=O)(O)O)cc1`: the Potency entry was “inactive”.

With `Nc1ccccc1[As](=O)(O)c1ccccc1`, the Potency entry is “inactive”.

As for `O=C(O)COc1ccc([As](=O)(O)O)cc1[N+](=O)[O-]`, the Potency result is “inactive”.

Turning to `O=P(Nc1nccs1)(Oc1ccccc1)Oc1ccccc1`, the Potency result was “inactive”.

Regarding `O=[As](O)(c1cccs1)c1cccs1`, the Potency result was “inactive”.

For `Cc1ccc(OCC(=O)OC2CN3CCC2CC3)cc1` (stereo unspecified), the Potency result is “inactive”.

Consider `O=P1(Nc2ccc(Br)cn2)COc2ccccc2OC1`, for which the Potency result is “inactive”.

With `NS(=O)(=O)c1cccc(NC(=O)COC(=O)C(O)(c2ccccc2)c2ccccc2)c1`, the Potency entry was “inactive”.

`Nc1cccc([As](=O)(O)c2ccccc2)c1`: the Potency result is “inactive”.

Consider `O=P1(Nc2ncccn2)COc2ccccc2OC1`, for which the Potency entry was “inactive”.

As to `CCCC1OP(=O)(Nc2ccccc2)OCC1CC` (stereo unspecified), the Potency result is “inactive”.

Take `CN(C)C1(CNC(=O)c2ccc(S(C)(=O)=O)cc2)CCCCC1`: the Potency entry was “inactive”.

With `Cc1nn(-c2ccccc2)c2c1P(=O)(N1CCOCC1)N(C)C(c1ccccc1)=N2` (stereo unspecified), the Potency result was “inactive”.

`CC1CCC(C(C)C)C(OP(=O)(Nc2ccccn2)c2ccccc2)C1` (stereo unspecified): the Potency is active: 23.1 µM.

As for `Cc1ccc(C(=O)OC2CN3CCC2CC3)cc1` (stereo unspecified), the Potency result was “inactive”.

Turning to `COc1cc([N+](=O)[O-])ccc1[N+](=O)[O-]`, the Potency is active: 11.2 µM.

Take `CC(C)/C=N\N=C(\N)N[N+](=O)[O-]`: the Potency entry was “inactive”.

Regarding `COc1ccccc1CNC(=O)COC(=O)C(O)(c1ccccc1)c1ccccc1`, the Potency entry was “inactive”.

Turning to `O=P1(N(CCCl)CCCl)NCCC(C(F)(F)F)O1` (stereo unspecified), the Potency result was “inactive”.

Turning to `Clc1n[nH]nc1-c1nn[nH][15n]1`, the Potency entry was “inactive”.

With `CCOP(=O)(Nc1ccc(C)cn1)OCC`, the Potency result is “inactive”.

As to `CN(CCCl)Cc1cc(Cl)c(NC2=NCCN2)c(Cl)c1`, the Potency result was “inactive”.

As for `O=P1(Nc2ccccn2)COc2ccccc2OC1`, the Potency result is “inactive”.

Take `CCC1=CC2Cc3nc4ccc(Cl)cc4c(N)c3C(C1)C2` (stereo unspecified): the Potency was active: 10.3 µM.

For `c1nnnn1CCn1cnnn1`, the Potency result is “inactive”.

For `CC(C)C(=O)NC(Sc1ccccc1)C(Cl)(Cl)Cl` (stereo unspecified), the Potency result is “inactive”.

For `O=P(Nc1nccs1)(c1ccccc1)c1ccccc1`, the Potency entry is “inactive”.

`C(Cc1nn[nH]n1)Cc1nn[nH]n1`: the Potency result is “inactive”.

As to `Nc1ccc([As](=O)(O)c2ccc([N+](=O)[O-])cc2)cc1`, the Potency entry is “inactive”.

As to `O=C(OC1CN2CCC1CC2)c1cccc(Cl)c1` (stereo unspecified), the Potency result was “inactive”.

Consider `O=[N+]([O-])c1ccc(O)c(/C=N/Nc2ccc([N+](=O)[O-])cc2[N+](=O)[O-])c1`, for which the Potency is active: 5.17 µM.

Regarding `O=[N+]([O-])c1ncn(CCn2cnc([N+](=O)[O-])n2)n1`, the Potency result was “inactive”.

In the case of `CC(=O)NC(SC(=S)N(C)C)C(Cl)(Cl)Cl` (stereo unspecified), the Potency was active: 0.92 µM.

Take `O=[As](O)(c1ccccc1)c1ccc(O)cc1`: the Potency entry was “inactive”.

Take `O=P(Nc1nc2ccccc2s1)(c1ccccc1)c1ccccc1`: the Potency entry was “inactive”.

With `C[C@H]1OP(=O)(Oc2ccccc2)[C@H](O)[C@H](O)[C@H]1N=[N+]=[N-]` (stereo partly specified), the Potency result was “inactive”.

On to `CN(C(=O)Cc1ccccc1)[C@H]1CC[C@@]2(CCCO2)C[C@@H]1N1CCCC1`, for which the Potency result was “inactive”.

As for `O=P(Nc1ccccn1)(c1ccc(Br)cc1)c1ccc(Br)cc1`, the Potency was active: 29.1 µM.

Regarding `CN(C)C1(CNC(=O)c2ccc(Cl)c(S(N)(=O)=O)c2)CCCCC1`, the Potency result is “inactive”.

On to `O=c1c2cc([N+](=O)[O-])ccc2[nH]c2c([N+](=O)[O-])cc([N+](=O)[O-])cc12`, for which the Potency is active: 0.411 µM.

As to `CN(C)C(=O)Oc1noc2ccccc12`, the Potency result was “inactive”.

For `COC(=O)c1cc2c(s1)N=C(c1ccccc1)N(C)P2(=O)N1CCOCC1` (stereo unspecified), the Potency result is “inactive”.

On to `O=C(OC1CN2CCC1CC2)c1ccccc1` (stereo unspecified), for which the Potency entry is “inactive”.

Consider `CCC(=O)N1C2C3N(C(=O)CC)C1C1N(C(=O)CC)C(C(N1C(=O)CC)N3C(=O)CC)N2C(=O)CC`, for which the Potency result was “inactive”.

With `O=P1(N(CCCl)CCCl)OCCC2CCCCN21` (stereo unspecified), the Potency entry was “inactive”.

For the compound `CCNC(=S)/N=C(\N)N[N+](=O)[O-]`, the Potency entry is “inactive”.

`O=C(NC1CCS(=O)(=O)C1)NP(=S)(Oc1ccccc1)Oc1ccccc1` (stereo unspecified): the Potency result was “inactive”.

On to `c1ccc(-c2nn[nH]n2)c(-c2nn[nH]n2)c1`, for which the Potency entry was “inactive”.

Regarding `O=[N+]([O-])c1cc([N+](=O)[O-])c2nc[nH]c2c1`, the Potency is active: 0.0794 µM.

For the compound `Cc1ccc(NP(=O)(Oc2cccc(C)c2)Oc2cccc(C)c2)nc1`, the Potency result is “inactive”.

For the compound `CC(=O)Nc1ccc([As](=O)(O)O)c(O)c1`, the Potency result is “inactive”.

On to `N#C/C(=C\c1ccc(N(CCBr)CCBr)cc1)C(N)=O`, for which the Potency was active: 0.731 µM.

As for `COC(=O)C1(C)COP(=O)(NCc2ccccc2)OC1` (stereo unspecified), the Potency entry is “inactive”.

Turning to `C[C@H]1OP(=O)(Oc2ccccc2)C[C@@H]2O[C@@H]21` (stereo partly specified), the Potency result is “inactive”.

In the case of `C[C@@H]1C=CCP(=O)(Oc2ccccc2)O1` (stereo partly specified), the Potency result was “inactive”.

As for `CCc1cc(O)c([N+](=O)[O-])c(C)c1[N+](=O)[O-]`, the Potency entry was “inactive”.

Take `CC(C)(C)C(=O)NC(Sc1ccccc1)C(Cl)(Cl)Cl` (stereo unspecified): the Potency entry is “inactive”.

Take `O=P1(Nc2nc3ccc(Cl)cc3s2)COc2ccccc2O1` (stereo unspecified): the Potency entry was “inactive”.

`CCOc1ccc(C2=NCC(CBr)S2)cc1` (stereo unspecified): the Potency result is “inactive”.

For `O=[N+]([O-])C1C(O)C(O)C([N+](=O)[O-])C(O)C1O` (stereo unspecified), the Potency result is “inactive”.

Regarding `Nc1cc(N)c2nonc2c1[N+](=O)[O-]`, the Potency result is “inactive”.

In the case of `Oc1ccccc1CNc1ccccn1`, the Potency entry was “inactive”.

As for `O=C(NC(Sc1ccncn1)C(Cl)(Cl)Cl)c1ccccc1` (stereo unspecified), the Potency result is “inactive”.

Take `COc1ccccc1OP(=O)(Nc1ccc(C)cn1)Oc1ccccc1OC`: the Potency entry was “inactive”.

Regarding `Cc1ccc(OP(=O)(Nc2nccs2)Oc2ccc(C)cc2)cc1`, the Potency result is “inactive”.

Take `CN1CCCC(OC(=O)C(c2ccccc2)c2ccccc2)C1` (stereo unspecified): the Potency result was “inactive”.

(Values after PubChem BioAssay AID686979 (National Center for Advancing Translational Sciences (NCATS), 2013).)
